pKd: −log10 of the molar value.
Target: T1, CIC-1 ion channels (Rattus norvegicus, UniProt P35524)
T1 construct: from tissue; host or cells: soleus muscle of adult (12-14 week old) Wistar rats
T1 sequence (P35524 1-994): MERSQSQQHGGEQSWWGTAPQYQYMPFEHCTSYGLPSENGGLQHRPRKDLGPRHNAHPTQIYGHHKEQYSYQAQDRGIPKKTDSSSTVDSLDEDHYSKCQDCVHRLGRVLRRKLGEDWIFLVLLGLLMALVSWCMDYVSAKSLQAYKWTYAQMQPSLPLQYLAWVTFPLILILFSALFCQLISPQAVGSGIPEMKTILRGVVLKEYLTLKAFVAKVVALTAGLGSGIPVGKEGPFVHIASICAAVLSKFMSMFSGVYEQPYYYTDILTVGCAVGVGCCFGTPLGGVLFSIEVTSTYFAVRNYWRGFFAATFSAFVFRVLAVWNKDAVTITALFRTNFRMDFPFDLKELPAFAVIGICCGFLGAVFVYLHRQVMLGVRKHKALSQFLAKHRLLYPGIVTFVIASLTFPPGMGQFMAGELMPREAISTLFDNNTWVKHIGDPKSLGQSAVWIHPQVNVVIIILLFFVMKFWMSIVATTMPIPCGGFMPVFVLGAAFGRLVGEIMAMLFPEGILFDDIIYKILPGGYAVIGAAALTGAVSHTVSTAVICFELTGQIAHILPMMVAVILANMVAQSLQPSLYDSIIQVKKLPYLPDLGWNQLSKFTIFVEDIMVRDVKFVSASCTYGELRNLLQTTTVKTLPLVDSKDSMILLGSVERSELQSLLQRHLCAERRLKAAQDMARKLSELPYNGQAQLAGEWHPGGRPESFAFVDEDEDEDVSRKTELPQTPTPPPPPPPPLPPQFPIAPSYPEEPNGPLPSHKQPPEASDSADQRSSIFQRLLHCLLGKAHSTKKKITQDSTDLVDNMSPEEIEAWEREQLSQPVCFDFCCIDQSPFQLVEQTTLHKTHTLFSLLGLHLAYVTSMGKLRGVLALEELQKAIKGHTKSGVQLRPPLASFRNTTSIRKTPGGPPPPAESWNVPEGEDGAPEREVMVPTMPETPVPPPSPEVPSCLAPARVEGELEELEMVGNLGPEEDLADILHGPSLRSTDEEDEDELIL
Test: Resting membrane conductance (Gm), three-electrode technique, rat muscle: Kd for CIC-1 inhibition
Type: cell-based
Conditions: concentration that reduced Gm by 50%

SMILES: C[C@H](Oc1ccc(Br)cc1)C(=O)O [Compound C8, (2S)-2-(4-bromophenoxy)propanoic acid]
- pKd: 5.05

Reference: patent publication US20190183812A1, “Compounds For The Treatment Of Neuromuscular Disorders” (NMD PHARMA A/S, priority 2017, published 2019)
